This note sets out measurements from PMC13649775 (2026).

Sequences of proteins named here, by UniProt entry; tags and fusion partners are left off.
UniProt P78527, whole entry: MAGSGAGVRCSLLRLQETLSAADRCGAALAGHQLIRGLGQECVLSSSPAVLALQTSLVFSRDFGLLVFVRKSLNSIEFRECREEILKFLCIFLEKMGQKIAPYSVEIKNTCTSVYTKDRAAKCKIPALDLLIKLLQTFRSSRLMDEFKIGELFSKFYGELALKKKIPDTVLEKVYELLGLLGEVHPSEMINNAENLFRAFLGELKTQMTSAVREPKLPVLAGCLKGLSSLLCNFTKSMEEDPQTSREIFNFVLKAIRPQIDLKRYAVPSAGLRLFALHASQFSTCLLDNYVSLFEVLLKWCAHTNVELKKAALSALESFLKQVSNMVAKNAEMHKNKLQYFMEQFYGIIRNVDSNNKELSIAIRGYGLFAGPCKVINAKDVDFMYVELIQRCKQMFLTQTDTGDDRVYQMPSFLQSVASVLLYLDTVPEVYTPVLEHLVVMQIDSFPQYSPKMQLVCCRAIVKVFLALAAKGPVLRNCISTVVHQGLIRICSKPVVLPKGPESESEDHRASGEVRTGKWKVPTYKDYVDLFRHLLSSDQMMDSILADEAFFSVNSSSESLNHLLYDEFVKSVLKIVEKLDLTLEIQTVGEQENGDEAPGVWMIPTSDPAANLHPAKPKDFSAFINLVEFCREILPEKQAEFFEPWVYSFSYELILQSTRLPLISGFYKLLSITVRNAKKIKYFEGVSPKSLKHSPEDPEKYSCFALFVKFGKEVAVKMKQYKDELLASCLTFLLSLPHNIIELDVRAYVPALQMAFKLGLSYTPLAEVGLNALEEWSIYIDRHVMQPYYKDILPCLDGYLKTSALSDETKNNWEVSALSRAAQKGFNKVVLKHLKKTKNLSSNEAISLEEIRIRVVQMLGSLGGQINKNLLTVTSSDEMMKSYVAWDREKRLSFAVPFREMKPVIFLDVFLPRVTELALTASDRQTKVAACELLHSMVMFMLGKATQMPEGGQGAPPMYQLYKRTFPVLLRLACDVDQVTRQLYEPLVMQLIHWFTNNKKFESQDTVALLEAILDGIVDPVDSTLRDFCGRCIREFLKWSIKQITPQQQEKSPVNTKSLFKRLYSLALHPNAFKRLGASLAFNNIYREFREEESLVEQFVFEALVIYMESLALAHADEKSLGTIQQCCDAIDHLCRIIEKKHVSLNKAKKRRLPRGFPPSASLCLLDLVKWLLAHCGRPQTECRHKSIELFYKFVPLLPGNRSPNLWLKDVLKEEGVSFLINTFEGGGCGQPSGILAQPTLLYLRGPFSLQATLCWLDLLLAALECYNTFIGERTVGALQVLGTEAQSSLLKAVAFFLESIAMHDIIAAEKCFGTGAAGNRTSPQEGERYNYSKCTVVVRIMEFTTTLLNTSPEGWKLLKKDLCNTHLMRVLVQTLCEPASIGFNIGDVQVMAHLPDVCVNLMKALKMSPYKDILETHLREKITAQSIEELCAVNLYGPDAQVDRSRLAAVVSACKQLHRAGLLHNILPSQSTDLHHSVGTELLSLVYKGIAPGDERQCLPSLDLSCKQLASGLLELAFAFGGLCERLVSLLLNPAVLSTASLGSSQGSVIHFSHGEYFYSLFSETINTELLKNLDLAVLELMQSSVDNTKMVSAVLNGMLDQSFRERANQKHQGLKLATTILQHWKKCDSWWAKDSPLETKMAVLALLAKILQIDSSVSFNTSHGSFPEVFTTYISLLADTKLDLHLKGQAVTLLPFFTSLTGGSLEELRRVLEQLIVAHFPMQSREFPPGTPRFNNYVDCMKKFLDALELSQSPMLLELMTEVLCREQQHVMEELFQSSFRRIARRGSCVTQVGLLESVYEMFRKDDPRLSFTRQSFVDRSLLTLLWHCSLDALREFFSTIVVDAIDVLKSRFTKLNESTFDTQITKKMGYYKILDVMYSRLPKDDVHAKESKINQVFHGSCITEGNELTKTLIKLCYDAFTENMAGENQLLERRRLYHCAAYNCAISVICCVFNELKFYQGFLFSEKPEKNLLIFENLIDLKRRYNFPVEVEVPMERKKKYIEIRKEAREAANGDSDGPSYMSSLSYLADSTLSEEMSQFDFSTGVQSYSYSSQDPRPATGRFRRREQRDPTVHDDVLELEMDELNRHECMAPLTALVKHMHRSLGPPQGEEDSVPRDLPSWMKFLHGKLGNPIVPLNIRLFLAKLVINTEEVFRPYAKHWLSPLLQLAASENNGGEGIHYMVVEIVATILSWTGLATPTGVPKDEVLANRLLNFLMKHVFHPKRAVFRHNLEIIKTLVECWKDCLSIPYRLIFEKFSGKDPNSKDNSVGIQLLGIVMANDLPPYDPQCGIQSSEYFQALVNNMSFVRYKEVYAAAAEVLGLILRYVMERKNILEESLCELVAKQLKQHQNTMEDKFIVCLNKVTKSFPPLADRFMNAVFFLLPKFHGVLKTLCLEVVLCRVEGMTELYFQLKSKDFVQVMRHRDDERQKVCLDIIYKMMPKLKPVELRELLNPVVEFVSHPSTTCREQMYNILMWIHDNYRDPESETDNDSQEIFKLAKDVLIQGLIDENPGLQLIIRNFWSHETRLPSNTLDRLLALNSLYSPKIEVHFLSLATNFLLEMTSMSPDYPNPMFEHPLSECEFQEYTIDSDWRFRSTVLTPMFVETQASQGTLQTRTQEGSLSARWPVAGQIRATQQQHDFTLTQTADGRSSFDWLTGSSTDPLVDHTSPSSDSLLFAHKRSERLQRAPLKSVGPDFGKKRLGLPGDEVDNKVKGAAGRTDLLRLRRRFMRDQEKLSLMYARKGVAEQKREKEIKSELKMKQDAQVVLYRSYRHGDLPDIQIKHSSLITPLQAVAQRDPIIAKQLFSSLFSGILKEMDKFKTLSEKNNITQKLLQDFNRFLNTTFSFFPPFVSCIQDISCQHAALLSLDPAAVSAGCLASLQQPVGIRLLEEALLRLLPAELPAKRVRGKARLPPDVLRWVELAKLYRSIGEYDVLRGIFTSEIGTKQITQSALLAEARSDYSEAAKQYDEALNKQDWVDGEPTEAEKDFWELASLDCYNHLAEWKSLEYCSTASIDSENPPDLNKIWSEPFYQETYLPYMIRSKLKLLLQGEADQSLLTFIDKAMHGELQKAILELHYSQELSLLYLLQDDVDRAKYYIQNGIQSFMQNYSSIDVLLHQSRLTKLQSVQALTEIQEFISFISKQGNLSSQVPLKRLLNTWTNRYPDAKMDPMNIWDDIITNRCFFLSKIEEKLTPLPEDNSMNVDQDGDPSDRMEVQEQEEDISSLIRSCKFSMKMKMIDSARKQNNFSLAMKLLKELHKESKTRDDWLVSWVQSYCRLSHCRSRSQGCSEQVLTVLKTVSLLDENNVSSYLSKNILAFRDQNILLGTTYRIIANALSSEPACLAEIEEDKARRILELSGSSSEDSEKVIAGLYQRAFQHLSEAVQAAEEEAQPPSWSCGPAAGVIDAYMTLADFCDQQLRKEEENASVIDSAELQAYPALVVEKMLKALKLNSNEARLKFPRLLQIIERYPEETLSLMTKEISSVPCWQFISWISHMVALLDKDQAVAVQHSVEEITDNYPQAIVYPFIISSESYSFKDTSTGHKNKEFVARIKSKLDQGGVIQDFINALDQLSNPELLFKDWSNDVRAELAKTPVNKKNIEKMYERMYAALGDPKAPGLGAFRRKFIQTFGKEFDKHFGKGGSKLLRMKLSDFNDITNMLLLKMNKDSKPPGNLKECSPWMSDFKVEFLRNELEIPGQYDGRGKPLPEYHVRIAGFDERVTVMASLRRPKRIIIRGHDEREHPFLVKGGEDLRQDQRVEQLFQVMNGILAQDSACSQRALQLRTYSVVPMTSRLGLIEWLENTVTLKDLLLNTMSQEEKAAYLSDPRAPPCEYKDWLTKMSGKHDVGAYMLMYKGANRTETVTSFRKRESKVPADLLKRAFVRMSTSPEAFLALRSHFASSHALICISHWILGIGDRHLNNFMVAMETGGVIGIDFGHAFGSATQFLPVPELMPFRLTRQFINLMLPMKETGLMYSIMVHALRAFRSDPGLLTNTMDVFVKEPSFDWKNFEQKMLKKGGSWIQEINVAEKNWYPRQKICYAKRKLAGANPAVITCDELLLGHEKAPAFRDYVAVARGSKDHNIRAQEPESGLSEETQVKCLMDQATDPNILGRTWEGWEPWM

Structures are written as SMILES.

This test has as its target DNA-PK (purified DNA-PKcs and Ku70/80) (Homo sapiens, UniProt P78527). The experiment in a line: autophosphorylation, immunoblot for DNA-PKcs phosphoserine […]. Conditions: 10 mM MgCl2, pH 7.5, 27 °C. In general terms: A western blot detects proteins with antibodies after separation by electrophoresis.
The mark [1] stands for this setting: 1 mM, sonicated calf thymus DNA, 3 min.

Regarding `Nc1ncnc2c1ncn2[C@@H]1O[C@H](COP(=O)(O)OP(=O)(O)OP(=O)(O)O)[C@@H](O)[C@H]1O`, the “autophosphorylation, immunoblot for DNA-PKcs phosphoserine 2056” value (“autophosphorylation, immunoblot” below) under setting [1] is given as “able to support DNA-enhanced autophosphorylation in the presence of either ATP or dATP”.
Consider `O=c1cc(N2CCOCC2)oc2c(-c3cccc4c3sc3ccccc34)cccc12`, for which, under “inhibitor, DNA-enhanced autophosphorylation of Ser2056”, the “autophosphorylation, immunoblot” value is reported as “this phosphorylation was sensitive to the DNA-PKcs inhibitor Nu7441”.
For `Nc1ncnc2c1ncn2[C@H]1C[C@H](O)[C@@H](COP(=O)(O)OP(=O)(O)OP(=O)(O)O)O1`, the “autophosphorylation, immunoblot” value under setting [1] was “DNA-PK is catalytically active and able to support DNA-enhanced autophosphorylation in the presence of either ATP or dATP”.
